Chains of the proteins cited; added tags and fusions are not shown. Lines headed by an entry give the natural chain unless they say otherwise; changes in a name come on top.
UniProt Q15743: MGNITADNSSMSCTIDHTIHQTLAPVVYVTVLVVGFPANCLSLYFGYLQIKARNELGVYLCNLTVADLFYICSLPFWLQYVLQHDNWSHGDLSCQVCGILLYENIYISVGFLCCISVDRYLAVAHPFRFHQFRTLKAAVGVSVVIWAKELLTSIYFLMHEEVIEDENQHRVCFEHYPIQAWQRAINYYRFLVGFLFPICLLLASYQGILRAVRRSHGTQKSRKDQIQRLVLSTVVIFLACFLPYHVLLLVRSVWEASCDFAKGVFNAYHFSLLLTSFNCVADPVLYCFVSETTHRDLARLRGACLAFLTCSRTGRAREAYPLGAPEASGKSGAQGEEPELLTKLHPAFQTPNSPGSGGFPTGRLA

The target of this assay is G-protein coupled receptor 68 (Homo sapiens, UniProt Q15743). Description: Binding affinity to GPR68 expressed in human HEK293T cells assessed as cAMP production in presence of H+ proton by Split-luciferase based luminescence counter analysis. It counts as cell-based. The note with it: filed as positive allosteric modulator. In a few lines: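 Proton concentration-response of GPR68 (wild type or E160A/K/Q, R189L/M, H269F mutants) in transiently transfected HEK293-T cells. Read-out: GloSensor cAMP, with luciferin loading 90 min at 37°C at pH 8.4. Run with and without increasing modulator concentrations; 20 min at room temperature before luminescence. Proton KA fixed to the proton EC50 without modulator. KB, τA, α, β fitted globally with an operational allosteric model. n=4.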
(In general: cAMP levels reflect the balance of adenylyl cyclase and phosphodiesterase activity.)
Usually pKb stands for −log10 of the Kb, conventionally taken in molar units. For the compound `Nc1nc(NCc2ccccc2)nc(-c2ccccc2CO)n1` [Ogerin], the pKb was determined as 5.89. For `Nc1nc(NCc2ccccc2)nc(-c2cc(F)cc(F)c2)n1`, the pKb was determined as 5.08. The result for `Nc1nc(NCc2ccccc2)nc(-c2cccc(CO)c2)n1` [ZINC32547799] reads 4.69.

The record behind these values is ChEMBL document CHEMBL5661984, “Allosteric ligands for the pharmacologically dark receptors GPR68 and GPR65” (Nature, 2015).
